A word on the IC50: it is the concentration that inhibits the measured activity by half.

Sequences of proteins named here, by UniProt entry; tags and fusion partners are left off.
UniProt P09207, whole entry: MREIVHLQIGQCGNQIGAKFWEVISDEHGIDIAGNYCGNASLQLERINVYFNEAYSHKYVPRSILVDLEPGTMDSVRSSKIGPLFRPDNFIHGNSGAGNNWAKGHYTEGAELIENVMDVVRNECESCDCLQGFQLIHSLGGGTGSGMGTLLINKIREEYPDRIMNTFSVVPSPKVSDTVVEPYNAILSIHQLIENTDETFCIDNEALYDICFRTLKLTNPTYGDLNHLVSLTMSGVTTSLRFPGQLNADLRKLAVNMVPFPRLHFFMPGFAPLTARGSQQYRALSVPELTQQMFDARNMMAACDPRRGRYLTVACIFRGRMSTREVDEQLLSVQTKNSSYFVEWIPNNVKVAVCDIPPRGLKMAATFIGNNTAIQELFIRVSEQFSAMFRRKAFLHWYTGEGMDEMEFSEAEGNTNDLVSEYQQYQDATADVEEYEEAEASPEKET

These results are taken from publication PMC9194530, “Interaction of Colchicine-Site Ligands With the Blood Cell-Specific Isotype of β-Tubulin—Notable Affinity for Benzimidazoles” (Frontiers in Cell and Developmental Biology, 2022).

The target in one experiment is CeTb, colchicine site (Gallus gallus, UniProt P09207). Kind of experiment: Single-point MDL competitive binding inhibition screen, erythrocyte tubulin.
Experiment [1] has as its target Erythrocyte tubulin (CeTb), colchicine site (Gallus gallus, UniProt P09207). In words: biochemical. It is filed as binding, chicken (Gallus gallus).
[2] abbreviates: Erythrocyte tubulin (CeTb) Kd (Table 4, selected drugs).

Like-named read-outs stand apart in the source and are kept apart here.

For `COc1ccc(S(=O)(=O)Nc2cccnc2Nc2ccc(O)cc2)cc1` [ABT-751], the Kd at CeTb, colchicine site was determined as 124 µM.
Regarding `COC(=O)Nc1nc2ccc(C(=O)c3cccs3)cc2[nH]1` [Nocodazole], half-maximal inhibition in experiment [1] (IC50) required 1.5 ± 0.11 µM. Moreover, the Kd stood at 0.51 ± 0.036 µM in experiment [1] (Erythrocyte tubulin (CeTb) Kd); 0.6 µM in experiment [1] (setting [2]); 0.68 µM on CeTb, colchicine site.
`COc1ccc(/C=C\c2cc(OC)c(OC)c(OC)c2)cc1O` [Combretastatin A4, cis-Combretastatin A4]: in experiment [1], the IC50 was determined as 20 ± 1.2 µM. For the same compound, the Kd in experiment [1] (Erythrocyte tubulin (CeTb) Kd) came out at 5.7 ± 0.32 µM; in experiment [1] (setting [2]), 5.7 µM; on CeTb, colchicine site, 9.5 µM.
At CeTb, colchicine site, `COc1cc2c(c(N)c1OC)C(=O)/C(=C\c1cc(C)c(O)c(C)c1)C2` [Indanocine] displayed a Kd of 16 µM. In addition, the “ratio in Kd(app), CeTb vs BTb” value at CeTb, colchicine site (single-point screen) is reported as “ca. 4.5 fold”.
For `COc1ccc(/C=C\c2cc(OC)c(OC)c(OC)c2)cc1O` [CS-A4 trans, combretastatin-A4 (trans)], the Kd at CeTb, colchicine site (read-out: CeTb Kd(app), from single-point data (50 µM drug) fitted with single-site isotherm, Eq. 4) worked out at 228 µM.
Compound `COc1ccc(NS(=O)(=O)c2c(F)c(F)c(F)c(F)c2F)cc1F` [T138067 (Batabulin), Batabulin] gave a Kd on CeTb, colchicine site of 415 µM.
